Data reported in publication PMC4084610 (Advances in pharmacology (San Diego, Calif.), 2014).

Amino acid sequences for entries named in this document (tags omitted).
UniProt Q01827, whole entry: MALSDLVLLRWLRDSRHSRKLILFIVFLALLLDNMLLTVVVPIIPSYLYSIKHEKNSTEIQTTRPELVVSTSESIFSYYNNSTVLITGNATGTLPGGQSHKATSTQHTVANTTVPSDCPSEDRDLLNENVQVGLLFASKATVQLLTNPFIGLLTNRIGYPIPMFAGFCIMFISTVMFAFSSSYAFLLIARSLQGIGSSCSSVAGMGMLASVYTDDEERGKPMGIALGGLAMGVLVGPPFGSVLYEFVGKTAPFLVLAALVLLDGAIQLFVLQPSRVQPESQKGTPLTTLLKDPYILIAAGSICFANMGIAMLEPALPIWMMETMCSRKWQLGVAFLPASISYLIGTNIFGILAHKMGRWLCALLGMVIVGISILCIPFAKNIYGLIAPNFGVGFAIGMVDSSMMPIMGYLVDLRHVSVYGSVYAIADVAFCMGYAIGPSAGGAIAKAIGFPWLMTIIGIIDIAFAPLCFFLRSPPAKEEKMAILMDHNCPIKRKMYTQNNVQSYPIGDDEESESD

How the values were obtained:
VMAT2 [1] = biological target: T1, VMAT2 (Rattus norvegicus, UniProt Q01827); format: biochemical; settings: rat striatal vesicles, mean±SEM
VMAT2 [2] = biological target: T1, VMAT2; format: binding; settings: whole rat brain vesicles, mean±SEM

For COc1cc2c(cc1OC)C1CC(=O)C(CC(C)C)CN1CC2 (centres unmarked) [TBZ, Tetrabenazine, reference compound], the “VMAT2 [3H]DA uptake Imax” value (VMAT2 [1]) was 92±3% and the “[3H]DTBZ binding Imax” value (VMAT2 [2]) was 100%.
